Values quoted from earlier work in PMC10708030, “Cytotoxic Natural Products Isolated from Cryptogramma crispa (L.) R. Br” (Molecules, 2023).

Test system: myeloid leukaemia HL 60 cells
Conditions: cited from earlier work

## CC1=C2C(=C[C@@](C)(CO)[C@@H]2O)C(=O)[C@](C)(O)C12CC2 [illudin S]
  cytotoxic effects against HL 60 cells: 6 to 100 nM
